# scFv variants of Ab-14 (light chain) against a SARS-CoV-2 spike peptide

Data: MIT Lincoln Laboratory AlphaSeq set, Li et al. 2023, doi:10.1038/s41467-023-39022-2, as distributed in FLAb.

Binding partner: SARS-CoV-2 spike HR2 peptide, sequence PDVDLGDISGINAS.

Each scFv is VH, the linker GGGGSGGGGSGGGGS, VL, as in the parent Ab-14, and differs from it in the CDRs of the light chain only.
VH: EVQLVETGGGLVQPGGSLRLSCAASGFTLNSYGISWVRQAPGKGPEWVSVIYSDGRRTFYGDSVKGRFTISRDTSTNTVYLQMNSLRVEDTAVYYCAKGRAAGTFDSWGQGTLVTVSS
VL: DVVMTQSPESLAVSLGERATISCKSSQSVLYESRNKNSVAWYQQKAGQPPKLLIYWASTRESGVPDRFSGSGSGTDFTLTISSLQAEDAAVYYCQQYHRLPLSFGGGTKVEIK

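The parent was found by panning a naive human phage display library on the peptide. The variants were designed computationally from a first round of random CDR variants and then made and measured. Their group label is 14L_En_Gen (En: ensemble of fine-tuned language models; Gen: genetic algorithm). In AlphaSeq, yeast of one mating type display the scFv and yeast of the other type display the target. Binding brings cells together so that they mate, and sequencing counts the barcode pairs among the diploids. Scores were corrected for input abundance and mapped to Kd with protein pairs of known affinity run in the same pool. Each pool was mated in six replicate cultures.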

The parent's light chain CDRs are KSSQSVLYESRNKNSVA, WASTRES, QQYHRLPLS; each variant's own CDRs replace them letter for letter.
Affinities are written as log10 Kd with Kd in nM; a lower number is a better binder.
The mean shown is taken over the replicates in which the pair was detected.
Where no diploid with the target was found in that replicate, the entry reads "ND": below detection, most likely a poor binder, though not proof of it.
As a blank, each scFv also met three strains without target: over all light chain designs, 4% of these pairings were detected, typically at 2.64 and seldom below 1.59. The control count says in how many pairings with the empty strains this scFv gave a signal, with their mean in brackets.
In the paper, a design with two or fewer of six values counts as a poor binder.
The range of this assay differs from that of the first round, and the authors advise against merging the two.
Of ten entries with the parent sequence, four were seen in most replicates (averages 0.34 to 2.37), three in one and three in none, so single entries are noisy.

| # | CDR-L1 | CDR-L2 | CDR-L3 | log10 Kd (nM) by replicate | mean, log10 nM | control signals |
|---|---|---|---|---|---|---|
| 1 | SLGLVTMLEYAGRNNVA | NNSTREN | QQYDRLPLS | ND ND ND 2.73 2.19 ND | 2.46 | 1/18 (1.23) |
| 2 | KISQTSEMETKNRNSVA | ELVTRMS | QQYNRLPLS | ND 1.09 1.41 3.50 1.09 1.79 | 1.78 | 1/18 (2.13) |
| 3 | MISQLMNLGQFAINSVA | QASIRNA | QQYDRLPLI | 2.11 1.46 1.67 2.12 2.68 3.47 | 2.25 | 0/18 |
| 4 | HITMGMYVHGRHHSSIA | QAEERAK | QQYDRLPLM | ND 2.57 ND 2.89 2.20 2.60 | 2.57 | 0/18 |
| 5 | MMSQVTGIGTRHRNNVA | QTSTREP | QQYDRLPLM | 0.55 0.48 0.43 -0.07 0.56 0.41 | 0.39 | 0/18 |
| 6 | HMSMLTLGGMRSRNSVA | QMTTREN | QQYDRLPLA | 0.57 0.51 0.40 0.42 0.53 0.22 | 0.44 | 0/18 |
| 7 | KIGQLFMLEQLHKNNVA | GTETRVT | QHYHRLPLS | ND 1.42 1.47 1.09 1.45 0.75 | 1.23 | 0/18 |
| 8 | IIDSIMFHGNKRANSIA | QAEERVN | QQYHHLPLT | 1.13 1.46 0.91 0.90 1.43 1.40 | 1.20 | 0/18 |
| 9 | MISQLYNMGQFAINSVA | QASERYN | QQYDRLPLV | ND ND ND ND ND ND | ND | 0/18 |
| 10 | TIGAQLMYGMRNRSNVA | EVSQRLN | QQYDRLPLI | 2.55 2.52 2.16 2.23 2.38 ND | 2.37 | 1/18 (2.14) |
| 11 | MMSQVTGMESKHRNNVA | QTSTRES | QQYDRLPLI | 0.80 0.60 0.92 0.90 1.01 1.47 | 0.95 | 1/18 (2.03) |
| 12 | KVSEFMRGLMQRKDSIA | DNTTRGN | QQYDRLPLS | ND ND 2.10 ND ND 3.34 | 2.72 | 0/18 |
| 13 | HLSEVLHMLGVKKNSIA | DLVLRAN | QQYHRLPLM | 0.95 1.05 0.81 0.77 0.59 0.66 | 0.80 | 0/18 |
| 14 | KISQMVRVGSTKQNSIA | EEATRSD | QQYHRLPLS | 0.57 0.46 0.58 0.22 0.64 0.46 | 0.49 | 2/18 (2.09) |
| 15 | MISQLMQMGQFAINSVA | QASIRNE | QQYDRLPLE | 2.33 1.48 1.32 1.97 1.70 1.87 | 1.78 | 0/18 |
| 16 | HMSAVTLMGQRHVNSVA | QMTTRES | QQYDHLPLS | 0.84 0.79 0.28 0.58 0.49 0.77 | 0.63 | 0/18 |
| 17 | QIYQAMHTLMQATNNVA | DVTNRNQ | QQYHRLPLS | 0.46 -0.29 -0.09 -0.24 0.07 -0.10 | -0.03 | 0/18 |
| 18 | TLYGLSNSMSKNKNNVA | EMTTREY | QQYDRLPLV | 0.34 0.62 0.26 0.51 0.56 0.52 | 0.47 | 2/18 (2.98) |
| 19 | IVSQLMLWGLHAKNSIA | EAVTRLN | QQYDRLPLF | ND ND ND ND ND 2.39 | 2.39 | 1/18 (2.28) |
| 20 | KLTSVTGSEKVRGNNVA | EMETREK | QQYNRLPLS | 0.51 0.46 0.40 0.37 0.50 0.62 | 0.48 | 2/18 (2.82) |
| 21 | SISGFMKSLSAHINSVA | DMTNRED | QQYDKLPLS | 1.08 1.14 0.87 0.82 0.64 0.98 | 0.92 | 0/18 |
| 22 | QLSMITGHMSVSKNNVA | EMETREE | QQYDRLPLS | 0.99 0.94 1.09 0.53 0.50 0.84 | 0.82 | 0/18 |
| 23 | KLSMVTGHMSVSKNNVA | EMETRMN | QQYDRLPLS | 0.21 0.01 0.12 0.17 0.16 0.10 | 0.13 | 0/18 |
| 24 | MMSQVTGMGQRQRNNVA | QTSTREE | QQYDRLPLI | 0.83 1.40 0.91 0.93 0.81 0.71 | 0.93 | 0/18 |
| 25 | MVNGIMDHLSKQTNNVA | EMTTREE | QQYDRLPLS | -0.13 0.56 0.30 0.75 0.28 1.76 | 0.59 | 0/18 |
| 26 | TISGMMNNMSTKHNSVA | NVTMRPD | QQYHRLPLS | 1.00 2.17 ND 1.33 3.45 1.43 | 1.88 | 0/18 |
| 27 | KIYQGINTHMGAHSSIA | QEETRLE | QQYAHLPLS | 0.79 0.82 1.21 0.76 1.07 1.21 | 0.98 | 0/18 |
| 28 | MISQVMNTLTRHGNNVA | DLDERED | QQYFRLPLS | 0.34 1.95 0.48 0.25 0.78 1.27 | 0.85 | 0/18 |
| 29 | MISQLYNMGQFAINSVA | QASERSE | QQYDRLPLM | 1.64 1.34 1.38 0.81 1.29 2.18 | 1.44 | 0/18 |
| 30 | TISMLMNHMTRNRNNVA | NMDMREV | QQYDRLPLS | 0.01 -0.07 -0.11 0.06 0.03 0.47 | 0.07 | 0/18 |
| 31 | TIGAQLMYGMRNRSNVA | EVSQRLN | QQYDRLPLD | 1.21 1.75 1.66 1.20 1.78 1.01 | 1.43 | 1/18 (2.81) |
| 32 | TISQMTSLFSQSINNVA | EVSTREK | QQYDRLPLA | 0.51 0.68 0.74 0.60 0.52 0.46 | 0.58 | 3/18 (2.27) |
| 33 | KISQMVRVGATKSNSIA | EMVTRAN | QQYHRLPLA | 1.56 1.40 0.29 0.56 0.98 1.09 | 0.98 | 0/18 |
| 34 | NIYQAMHTLSQMKDNVA | DVNERGQ | QQYYRLPLS | 0.44 0.46 0.68 0.10 -0.01 0.64 | 0.38 | 1/18 (0.85) |
| 35 | TISQMTSLFSQSINNVA | EVSTREN | QQYDRLPLS | 0.19 0.04 0.08 0.59 0.49 0.55 | 0.32 | 0/18 |
| 36 | KLTTVTGTEKVKGNNVA | EMETRER | QQYNRLPLA | -0.03 -0.32 -0.34 -0.19 -0.20 -0.04 | -0.19 | 1/18 (2.32) |
| 37 | IVSQLMIWGMHLKNSIA | EAQTRVN | QQYDRLPLI | ND ND 0.71 ND ND ND | 0.71 | 0/18 |

For reference, 5 entries of the list once more:

| CDR-L1 | CDR-L2 | CDR-L3 | log10 Kd (nM) by replicate | mean, log10 nM | control signals |
|---|---|---|---|---|---|
| SLGLVTMLEYAGRNNVA | NNSTREN | QQYDRLPLS | ND ND ND 2.73 2.19 ND | 2.46 | 1/18 (1.23) |
| MMSQVTGIGTRHRNNVA | QTSTREP | QQYDRLPLM | 0.55 0.48 0.43 -0.07 0.56 0.41 | 0.39 | 0/18 |
| TISMLMNHMTRNRNNVA | NMDMREV | QQYDRLPLS | 0.01 -0.07 -0.11 0.06 0.03 0.47 | 0.07 | 0/18 |
| KLTSVTGSEKVRGNNVA | EMETREK | QQYNRLPLS | 0.51 0.46 0.40 0.37 0.50 0.62 | 0.48 | 2/18 (2.82) |
| SISGFMKSLSAHINSVA | DMTNRED | QQYDKLPLS | 1.08 1.14 0.87 0.82 0.64 0.98 | 0.92 | 0/18 |